Counter-ions that a name gives are not always drawn.
Target: T1, human NTCP (Homo sapiens, UniProt Q14973)
T1 sequence (Q14973 1-349): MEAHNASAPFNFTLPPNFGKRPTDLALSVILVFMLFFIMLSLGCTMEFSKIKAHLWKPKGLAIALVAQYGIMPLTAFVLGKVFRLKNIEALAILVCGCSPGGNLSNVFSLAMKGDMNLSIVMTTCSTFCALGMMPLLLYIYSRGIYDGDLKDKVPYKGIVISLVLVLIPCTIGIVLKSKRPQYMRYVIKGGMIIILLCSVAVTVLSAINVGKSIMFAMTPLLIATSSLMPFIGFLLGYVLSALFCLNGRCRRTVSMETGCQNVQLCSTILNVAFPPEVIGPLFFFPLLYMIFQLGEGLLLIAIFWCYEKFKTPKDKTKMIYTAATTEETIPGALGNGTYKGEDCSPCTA
Assay: Screening fluorescent competitive Myrcludex B-FITC binding assay (96-well, 10 µM drug)
Settings: for B-score binding assay / %NTCP binding: screening Myrcludex B-FITC binding, 10 µM drug; for remaining activity at 10 µM: 0.5 h, read-out: %NTCP binding, screening Myrcludex B-FITC binding, 10 µM drug, Prestwick library; for %NTCP binding: Prestwick library

| SMILES | B-score binding assay | other results |
| --- | --- | --- |
| CC(=O)Oc1ccccc1C(=O)O [Acetylsalicylic acid] |  | B-score binding assay (B-score): 1.435 |
| CO/N=C(\C(=O)N[C@@H]1C(=O)N2C(C(=O)O)=C(C[N+]3(C)CCCC3)CS[C@H]12)c1csc(N)n1 [Cefepime hydrochloride] |  | B-score binding assay (B-score): 1.672 |
| C#C[C@]1(OC(C)=O)CC[C@H]2[C@@H]3CCC4=C[C@@H](OC(C)=O)CC[C@@H]4[C@H]3CC[C@@]21C [Ethynodiol diacetate] | -0.591 |  |
| C#C[C@]1(O)CC[C@H]2[C@@H]3CCC4=CC(=O)CC[C@@H]4[C@H]3CC[C@@]21C [Norethindrone] | -1.263 |  |
| NC(CO)C(=O)NNCc1ccc(O)c(O)c1O (stereo not drawn) [Benserazide hydrochloride] | 0.009 |  |
| CC(=O)OC(C)C[N+](C)(C)C (stereo not drawn) [Methacholine chloride] | -0.327 |  |
| CNC(=O)Oc1ccc2c(c1)[C@]1(C)CCN(C)[C@@H]1N2C [Eserine hemisulfate salt] | -1.774 |  |
| CC(=O)NC[C@H]1CN(c2ccc(N3CCOCC3)c(F)c2)C(=O)O1 [Linezolid] | -1.404 |  |
| CCN(C(C)=O)c1cccc(-c2ccnc3c(C#N)cnn23)c1 [Zaleplon] | -0.722 | remaining activity at 10 µM: 79.9% |
| Nc1cc(N2CCCCC2)nc(N)[n+]1[O-] [Minoxidil] | -1.367 |  |
| CNCC[C@@H](Oc1ccccc1C)c1ccccc1 [Tomoxetine hydrochloride] | -1.279 |  |
| Clc1ccc(COC(Cn2ccnc2)c2ccc(Cl)cc2Cl)c(Cl)c1 (stereo not drawn) [Miconazole] | 0.078 |  |
| CC(=O)Oc1ccc(C(c2ccc(OC(C)=O)cc2)c2ccccn2)cc1 [Bisacodyl] | -2.592 |  |
| C=CCc1ccccc1OCC(O)CNC(C)C (stereo not drawn) [Alprenolol hydrochloride] |  | B-score binding assay (B-score): 1.351 |
| CN(C)CCCOc1nn(Cc2ccccc2)c2ccccc12 [Benzydamine hydrochloride] | -0.285 |  |
| CC(CCc1ccccc1)NCC(O)c1ccc(O)c(C(N)=O)c1 (stereo not drawn) [Labetalol hydrochloride] | -0.755 |  |
| C[C@]12CCC(=O)C=C1CC[C@@H]1[C@@H]2[C@@H](O)C[C@@]2(C)[C@H]1CC[C@]2(O)C(=O)CO [Hydrocortisone base] | -0.211 | %NTCP binding: 66.5265% |
| c1ccc2c(c1)Nc1ccccc1S2 [Phenothiazine] | -0.016 | remaining activity at 10 µM: 59.7% |
| CCCc1nc(C)c2c(=O)[nH]c(-c3cc(S(=O)(=O)N4CCN(CC)CC4)ccc3OCC)nn12 [Vardenafil] | -0.167 |  |
| CC[N+](C)(CC)CCC[n+]1c(-c2ccccc2)c2cc(N)ccc2c2ccc(N)cc21.[I-].[I-] [Propidium iodide] | 3.509 | %NTCP binding: 124.519% |
| O=S(=O)(O)CCS [Mesna] | -2.287 |  |
| O=c1[nH]c2ccccc2n1C1CCN(CCCC(c2ccc(F)cc2)c2ccc(F)cc2)CC1 [Pimozide] | -0.085 |  |
| CCN(CC)C(=S)SSC(=S)N(CC)CC [Disulfiram] | -1.387 |  |
| Clc1ccccc1C(c1ccccc1)(c1ccccc1)n1ccnc1 [Clotrimazole] | -1.322 |  |

| SMILES | B-score binding assay | other results |
| --- | --- | --- |
| CC[N+](CC)(CC(=O)Nc1c(C)cccc1C)Cc1ccccc1 [Denatonium benzoate] | -0.18 |  |
| CC1(C)S[C@@H]2[C@H](NC(=O)[C@H](NC(=O)N3CCNC3=O)c3ccccc3)C(=O)N2[C@H]1C(=O)O [Azlocillin sodium salt] | -3.095 |  |
| C=C(NC(=O)C(=C)NC(=O)c1csc(C2=N[C@@H]3c4csc(n4)[C@H]4NC(=O)c5csc(n5)[C@H]([C@](C)(O)[C@@H](C)O)NC(=O)[C@H]5CSC(=N5)/C(=C/C)NC(=O)[C@H]([C@@H](C)O)NC(=O)c5csc(n5)[C@]3(CC2)NC(=O)[C@H](C)NC(=O)C(=C)NC(=O)[C@H](C)NC(=O)[C@H]([C@@H](C)CC)N[C@@H]2C=Cc3c([C@H](C)O)cc(nc3[C@H]2O)C(=O)O[C@@H]4C)n1)C(N)=O [Thiostrepton] | -19.121 |  |
| CN1[C@@H]2CC[C@H]1C[C@@H](OC(c1ccccc1)c1ccccc1)C2 [Benztropine mesylate] | -0.297 |  |
| C[C@]12C=CC(=O)C=C1CC[C@@H]1[C@@H]2[C@@H](O)C[C@@]2(C)[C@H]1CC[C@]2(O)C(=O)CO [Prednisolone] | 0.002 |  |
| NS(=O)(=O)c1cc(C(=O)O)c(NCc2ccco2)cc1Cl [Furosemide] |  | B-score binding assay (B-score): 1.906 |
| O=c1c2ccccc2[se]n1-c1ccccc1 [Ebselen] | -9.607 |  |
| NC(=NCc1ccccc1)NC(=O)c1nc(Cl)c(N)nc1N [Benzamil hydrochloride] | -0.194 | remaining activity at 10 µM: 84.6% |
| c1ccc2c(CC3=NCCN3)cccc2c1 [Naphazoline hydrochloride] | -1.427 |  |
| NC(=O)OCC(O)COc1ccc(Cl)cc1 (stereo not drawn) [Chlorphensin carbamate] |  | %NTCP binding: 77.0968%; B-score binding assay (B-score): 1.766 |
| COC(=O)C1=C(C)NC(C)=C(C(=O)OCC(C)C)C1c1ccccc1[N+](=O)[O-] (stereo not drawn) [Nisoldipine] | -2.798 |  |
| COc1cc2nc(N(C)CCCNC(=O)C3CCCO3)nc(N)c2cc1OC (stereo not drawn) [Alfuzosin hydrochloride] | 0.046 |  |
| CC[C@H](C)C(=O)O[C@H]1C[C@H](O)C=C2C=C[C@H](C)[C@H](CC[C@@H](O)C[C@@H](O)CC(=O)O)[C@H]21 [Pravastatin] | 1.277 |  |
| CN1CCN(C(=O)OC2c3nccnc3C(=O)N2c2ccc(Cl)cn2)CC1 (stereo not drawn) [Zopiclone] | -1.891 |  |
| CC(=O)N[C@@H](CS)C(=O)O [Acetylcysteine] | 1.995 |  |
| O=C(O)Cc1ccc(-c2ccccc2)cc1 [Felbinac] | 0.963 |  |
| CC(=O)N(CC(O)CN(C(C)=O)c1c(I)c(C(=O)NCC(O)CO)c(I)c(C(=O)NCC(O)CO)c1I)c1c(I)c(C(=O)NCC(O)CO)c(I)c(C(=O)NCC(O)CO)c1I (stereo not drawn) [Iodixanol] | -2.68 |  |
| CO[C@@]1(NC(=O)C(C(=O)O)c2ccc(O)cc2)C(=O)N2C(C(=O)O)=C(CSc3nnnn3C)CO[C@@H]21 (stereo partly drawn) [Moxalactam disodium salt] | 1.82 |  |
| Clc1ccc2c(c1)C(N1CCNCC1)=Nc1ccccc1O2 [Amoxapine] | -0.467 |  |
| CCC(=O)OCC(=O)[C@@]1(OC(=O)CC)[C@@H](C)C[C@H]2[C@@H]3CCC4=CC(=O)C=C[C@]4(C)[C@@]3(Cl)[C@@H](O)C[C@@]21C [Beclomethasone dipropionate] | -0.518 |  |
| C[C@@H]1[C@H](O)[C@@H](C)/C=C/C=C/C=C/C=C/C=C/C=C/C=C/[C@H](O[C@@H]2O[C@H](C)[C@@H](O)[C@H](N)[C@@H]2O)C[C@@H]2O[C@](O)(C[C@@H](O)C[C@@H](O)[C@H](O)CC[C@@H](O)C[C@@H](O)CC(=O)O[C@H]1C)C[C@H](O)[C@H]2C(=O)O [Amphotericin B] | -0.794 |  |
| CC/C(=C(/CC)c1ccc(O)cc1)c1ccc(O)cc1 [Diethylstilbestrol] | -1.483 |  |
| CCc1nn(CCCN2CCN(c3cccc(Cl)c3)CC2)c(=O)n1CCOc1ccccc1 [Nefazodone HCl] | -0.887 |  |
| CN(C)CCCN1c2ccccc2Sc2ccc(Cl)cc21 [Chlorpromazine hydrochloride] | -4.067 |  |

— article PMC5681660, “Reduced hepatitis B and D viral entry using clinically applied drugs as novel inhibitors of the bile acid transporter NTCP” (Scientific Reports, 2017)
